Laboratory results from PubChem BioAssay AID504411 (The Scripps Research Institute Molecular Screening Center, 2011).
Only a part is listed here, and it is no random draw. Calls of active or inactive are those of the source. Cut-off read from the data, not from the text of the source: active = inhibition above about 34%; inactive = the rest.

By UniProt entry, the sequences of proteins in these tests, tags left out.
UniProt Q8NCG7, whole entry: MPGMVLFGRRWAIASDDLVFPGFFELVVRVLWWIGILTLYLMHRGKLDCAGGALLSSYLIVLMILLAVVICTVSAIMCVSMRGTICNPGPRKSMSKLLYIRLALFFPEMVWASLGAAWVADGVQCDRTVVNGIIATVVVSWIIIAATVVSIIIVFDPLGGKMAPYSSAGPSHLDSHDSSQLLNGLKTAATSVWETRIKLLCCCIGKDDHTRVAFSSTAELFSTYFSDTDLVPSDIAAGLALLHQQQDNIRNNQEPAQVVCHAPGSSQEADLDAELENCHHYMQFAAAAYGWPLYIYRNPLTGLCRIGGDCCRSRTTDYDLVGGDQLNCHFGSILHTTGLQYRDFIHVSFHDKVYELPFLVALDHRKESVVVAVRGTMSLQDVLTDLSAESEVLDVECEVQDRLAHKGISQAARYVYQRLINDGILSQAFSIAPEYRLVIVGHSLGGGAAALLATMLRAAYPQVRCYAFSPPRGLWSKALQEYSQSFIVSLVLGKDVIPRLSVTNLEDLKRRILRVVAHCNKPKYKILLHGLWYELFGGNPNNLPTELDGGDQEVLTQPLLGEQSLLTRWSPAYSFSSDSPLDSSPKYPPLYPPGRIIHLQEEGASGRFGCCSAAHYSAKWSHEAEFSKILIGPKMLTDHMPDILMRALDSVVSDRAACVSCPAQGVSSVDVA

These molecules were tested against Diacylglycerol lipase-beta (Homo sapiens) (UniProt Q8NCG7) (assay: inhibition of human DAGLB hydrolase activity – biochemical, fluorescence, HTS, primary screen (AID 504411;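 note: 0% = enzyme with vehicle and 100% = wells lacking enzyme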)). Details: HEK293T DAGLB membrane lysate, EnzChek fluorogenic substrate; at 5.17 µM; active compounds read high.

| SMILES | inhibition |
| --- | --- |
| CCOC(=O)C(CC)C1=NC(C)(C)Cc2ccccc21.O=[N+]([O-])c1cc([N+](=O)[O-])c(O)c([N+](=O)[O-])c1 (stereo unspecified) | inactive: 4.04% |
| CN1CCCCC1COC(=O)C1(O)c2ccccc2CCc2ccccc21 (stereo unspecified) | inactive: -1.66% |
| COc1ccccc1OP(C)(=O)Nc1c(C)cccc1C (stereo unspecified) | inactive: -1.35% |
| CP(=O)(Nc1ccc(SC(F)(F)F)cc1)Oc1ccccc1 (stereo unspecified) | inactive: 0.27% |
| CCCOc1ccc(NP(C)(=O)Oc2ccc(Cl)cc2)cc1 (stereo unspecified) | inactive: 4.61% |
| O=C(O)c1cccc(Nc2c([N+](=O)[O-])cc([N+](=O)[O-])cc2[N+](=O)[O-])c1 | inactive: 6.16% |
| CC1=NCCc2c1[nH]c1ccccc21.O=[N+]([O-])c1cc([N+](=O)[O-])c(O)c([N+](=O)[O-])c1 | inactive: 2.13% |
| COc1ccccc1OP(C)(=O)Nc1cccc(Br)c1 (stereo unspecified) | inactive: 1.57% |
| Cc1cc(C)cc(OP(C)(=O)Nc2ccc(C)cc2C)c1 (stereo unspecified) | inactive: -3.6% |
| CCOC(=O)c1ccc(NP(C)(=O)Oc2cc(C)cc(C)c2)cc1 (stereo unspecified) | inactive: -3.07% |
| CP(=O)(Nc1cccc(Br)c1)Oc1ccccc1 (stereo unspecified) | inactive: -1.96% |
| Cc1cc(C)cc(OP(C)(=O)Nc2ccccn2)c1 (stereo unspecified) | inactive: -2.19% |
| Cc1ccc(C)c(NP(C)(=O)Oc2ccccc2)c1 (stereo unspecified) | inactive: 3.26% |
| CCN(CC)CCCOC(=O)C(O)(c1ccccc1)c1ccccc1 | inactive: 1.96% |
| O=[N+]([O-])c1cc([N+](=O)[O-])c(Nc2cccnc2)c([N+](=O)[O-])c1 | inactive: 6.98% |
| CC(C)(C)c1ccc(OP(C)(=O)Nc2ccc(SC(F)(F)F)cc2)cc1 (stereo unspecified) | inactive: -1.41% |
| Cc1cccc(C)c1OP(C)(N)=O (stereo unspecified) | inactive: 1.24% |
| O=[N+]([O-])c1ccc2c(c1)C=Nc1ccccc1O2 | inactive: 0.36% |

| SMILES | inhibition |
| --- | --- |
| CCOC(=O)c1ccc(NP(C)(=O)Oc2ccccc2)cc1 (stereo unspecified) | inactive: -5.13% |
| COc1ccccc1OP(C)(=O)Nc1ccc(C)cc1 (stereo unspecified) | inactive: -0.3% |
| Cc1ccc(NP(C)(=O)Oc2ccccc2)c(C)c1 (stereo unspecified) | inactive: -1.44% |
| COc1ccccc1OP(C)(=O)Nc1cc(Cl)ccc1C (stereo unspecified) | inactive: -0.91% |
| COc1ccc(OP(C)(=O)Nc2cccc(F)c2)cc1 (stereo unspecified) | inactive: -1.39% |
| Cc1cc(C)cc(OP(C)(N)=O)c1 (stereo unspecified) | inactive: 2.17% |
| CP(=S)(Nn1cnnc1)Oc1ccccc1 (stereo unspecified) | inactive: -1.37% |
| COc1ccccc1OP(C)(=O)Nc1ccccc1 (stereo unspecified) | inactive: -0.76% |
| CP(=O)(Nc1ccccc1Br)Oc1ccccc1 (stereo unspecified) | inactive: -1.75% |
| Cc1ccc(Nc2c([N+](=O)[O-])cc([N+](=O)[O-])cc2[N+](=O)[O-])cc1 | inactive: 13.8% |
| Cc1cccc(C)c1OP(C)(=O)Nc1ccc(SC(F)(F)F)cc1 (stereo unspecified) | inactive: -1.55% |
| CP(=O)(Oc1ccccc1)OC(c1ccccc1)C(F)(F)F (stereo unspecified) | inactive: -1.49% |
| CCc1ccc(OP(C)(=O)N2CCN(c3ccc([N+](=O)[O-])cc3)CC2)cc1 (stereo unspecified) | inactive: 0.94% |
| CP(=O)(NC(=O)Nc1ccccc1)Oc1ccccc1 (stereo unspecified) | inactive: -6.43% |
| Cc1cc(C)cc(OP(C)(=O)Nc2ccc(SC(F)(F)F)cc2)c1 (stereo unspecified) | inactive: -1.8% |
| CCOP(C)(=S)SCC(=O)NC(C)C(=O)O (stereo unspecified) | inactive: 0.24% |
| CCOC(=O)c1ccc(NP(C)(=O)Oc2ccc(OC)cc2)cc1 (stereo unspecified) | inactive: -1.85% |
| CP(=O)(Nc1ccccn1)Oc1ccc(Cl)cc1 (stereo unspecified) | inactive: -1.29% |
